Yeast mating assay B: variants of the scFv Ab-14

From the AlphaSeq antibody data of Li et al. 2023 (doi:10.1038/s41467-023-39022-2), copy in the FLAb collection.

Target: peptide PDVDLGDISGINAS, taken from heptad repeat 2 (HR2) of SARS-CoV-2 spike.

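These sequences belong to a second round, designed from the earlier measurements on random variants of the parent. Several design methods are mixed in this list. AlphaSeq pools MATa yeast showing the antibodies with MATalpha yeast showing the peptide. Pairs that bind mate more often; barcode pairs of the diploids are counted by sequencing. Read counts were normalised to the haploid input and turned into Kd by a linear fit to BCL2-family pairs of known affinity, for each replicate. Mating was done six times.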

Parent scFv Ab-14: VH joined to VL by a (GGGGS)3 linker. Changes lie in the heavy chain CDRs alone.
VH: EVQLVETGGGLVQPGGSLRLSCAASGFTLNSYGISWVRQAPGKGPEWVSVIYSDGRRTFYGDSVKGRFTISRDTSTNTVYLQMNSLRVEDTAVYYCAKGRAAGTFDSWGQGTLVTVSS
VL: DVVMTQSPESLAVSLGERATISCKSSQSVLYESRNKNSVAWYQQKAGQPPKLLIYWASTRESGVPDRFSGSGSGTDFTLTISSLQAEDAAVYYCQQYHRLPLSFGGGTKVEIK

Variants are written as CDR1, CDR2 and CDR3 of the heavy chain (limits as in the source). Parent: GFTLNSYGIS, VIYSDGRRTFYGDSVK, GRAAGTFDS.
The Kd shown is the geometric mean over detected replicates; a lower Kd is a better binder.
"nd" marks a missing value. The strain was present, yet no cells mated with the target were sequenced in any replicate, which points to weak or no binding.
In the paper, a design with two or fewer of six values counts as a poor binder.
Of ten entries with the parent sequence, four were seen in most replicates (averages 2.2 nM to 240 nM), three in one and three in none, so single entries are noisy.
A sequence measured in both rounds can read differently, since the two assays cover different ranges.
Nonspecific signal, from three strains lacking the peptide, appeared in 1% of pairings of all heavy chain designs, centred on 120 nM (5% of these signals below 7.0 nM); values are not corrected for it.

CDR-H1,CDR-H2,CDR-H3,apparent Kd,seen in
GFTLNEYGIS,VIYSDGRRTFYEDDVK,GRHAGTFDS,10 nM,6/6
GFNLNEYGIS,VIYADGKRTFYADSVK,GEAAGTFDS,120 pM,6/6
GFQLNSYGIS,VIYSDGRRTEYGDSVK,GRAAGTFDS,nd,0/6
GFDLGEYGIS,VIYADGKRTACVTNVK,GTFGGTLLV,nd,0/6
GFSLNEYGIS,VIYSDGRRTFYKDSVK,GRFAGTFDS,4.4 nM,6/6
GFDLNEYGIS,VIYADGMRTAYTDSVK,GETAGTFDQ,290 pM,6/6
GQSLDDYGIS,VIYADGQRKAAVDEVK,GENAGTFDI,nd,0/6
GFDLNNYGIS,VIYSDGRRTFYGDSVK,GQAAGTFDS,1.9 nM,6/6
GFDLNEYGIS,VIYADGMRTYYTESVK,GNFWDQLFV,81 nM,1/6
GFTLMSYGIS,VISSDGRRTFYGDDVK,GWAAGTFPS,nd,0/6
GFGLNSYGIS,VIYSDGRRTFYSDSVK,GKNAGTFDS,370 pM,2/6
GFDLNEYGIS,VIYSDGRRTFYGDAVK,GKAAGTFDS,980 pM,6/6
GFTLNSYGIS,VIYSDGVRTFYSDSVK,GRTAGTFDS,1.3 nM,6/6
GFTLNSYGIS,VIYSDGRRTFYHDSVK,GRADGTNWS,nd,0/6
GFDLNEYGIS,VIYADGQRTAYADSVK,GANAGTFDM,110 pM,6/6
GFDLDEYGIS,VIYADGQRTAYADSVK,GQNAGTFDT,450 pM,6/6
GFTLNSYGIS,VIYADGRRTAYGDSVK,GRAAGTFPS,2.3 µM,1/6
GFTLNSYGIS,VIYSDGKRTFYGDSVK,GRTAGTFDT,18 nM,6/6
GFSLNTYGIS,VIYSDGRRTFYADSVK,GQAAGTFDS,600 pM,6/6
GFNLNEYGIS,VIYSDGRRTFYKDSVK,GRAAGTFDS,5.0 nM,6/6
KFNLNSYGIS,VIYSDGRRTFYIDSVK,GQTAGTFDS,170 nM,1/6
GFSLNSYGIS,VIYSDGRRTFYGDSVK,GHAAGTFDK,8.4 nM,6/6
GFNLDEYGIS,VIYADGMRTVYAKNVK,GQNVGFTVF,nd,0/6
GFVLNSYGIS,VIYSDGRRTFYDDSVK,GQLAGTFDS,40 nM,3/6
GFTLNSYGIS,VIYSDGRRTFYGDSVK,GREAGTFDK,20 nM,6/6
GFDLNEYGIS,VIYADGRRTFYTDSVK,GQLAGTFDV,380 pM,6/6
GFDLNSYGIS,VIYSDGRRTFYGDSVK,GRAADTFNS,23 nM,1/6
GYDIEQYGIS,VIYADGIRTVYDDSVK,GHNGDTFYV,nd,0/6
GFDLNSYGIS,VIYSDGRRTFYADSVK,GRKAGTFDS,nd,0/6
GFELNSYGIS,VIYSDGRRTFYGDSVK,GEAAGTFDV,5.2 nM,2/6
GFSLNSYGIS,VIYSDGRRTFYVDSVK,GQTAGTFDT,200 pM,3/6

Second part, the sequence after the result:

apparent Kd,seen in,CDR-H1,CDR-H2,CDR-H3
2.2 nM,2/6,GFDLNEYGIS,VIYADGMRTFYSDSVK,GEAAGTFVS
6.3 nM,1/6,GFTLNSYGIS,VIYSDGRRTFYKDQVK,GRAAGTFDS
67 nM,1/6,GGELDEYGIS,VIYADGIRRQYADNVK,GETADAFDM
470 pM,6/6,GFDLDEYGIS,VIYADGQRTAYADSVK,GQNAGTFDV
nd,0/6,GFTLNEYGIS,VIYADGRRTFYGDSVK,GSAAGCFDS
1.2 nM,6/6,GFDLNEYGIS,VIYADGVRTAYKDSVK,GNVAGTFDV
12 nM,4/6,GFSLNSYGIS,VIYSDGRRTFYVDSVK,GRTAGTFDT
nd,0/6,GFDLNEYGIS,VIYADGVRTQYANSVK,NGLRYQNKL
500 pM,6/6,GFSLNEYGIS,VIYSDGRRTFYADSVK,GQAAGTFDS
2.8 nM,6/6,GFSLNSYGIS,VIYSDGMRTFYSDSVK,GRTAGTFDS
nd,0/6,GFTLNSYGSS,VIYSDGRRTFQSDSVK,GWAGGTFDS
1.5 nM,6/6,GFDLNSYGIS,VIYSDGRRTFYADSVK,GKAAGTFDV
220 pM,5/6,GFDLNEYGIS,VIYADGMRTAYADSVK,GEVAGTFDF
360 pM,6/6,GFSLNSYGIS,VIYSDGRRTFYVDSVK,GNTAGTFDT
6.2 nM,6/6,GFTLNSYGIS,VIYSDGKRTFYSDSVK,GKAAGTFDV
34 nM,5/6,GFTLESYGIS,VIYADGRRTFYGDDVK,GRAAGTFKS
nd,0/6,GFDINEYGVS,VIYADGMRSYYAGKVK,GSNGALFDV
2.1 nM,6/6,GFDLNSYGIS,VIYSDGRRTFYIDSVK,GQAAGTFDL
91 nM,5/6,GFTLNSYGIS,VIYSDGRRTFYGDDVK,GRAAGTFDS
2.1 nM,6/6,GFTLNSYGIS,VIYSDGKRTFYGDSVK,GQVAGTFDL
250 pM,6/6,GFNLNEYGIS,VIYADGKRKFYADSVK,GNTAGTFDV
nd,0/6,GFQLNEYGIS,VIYADGIRREYASKVK,GGENASFDL
90 nM,2/6,GFTLNDYGIS,VIYSDGRRTFYGDSVK,GRAAGTFDP
nd,0/6,GFDLENYGIS,VIYADGIRKVYDQSVK,GQMGTTFTV
5.2 nM,6/6,GFTLNSYGIS,VIYSDGRRTFYDDSVK,GDAAGTFDS
1.0 nM,2/6,GFSLNSYGIS,VIYSDGRRTFYIDSVK,GRLAGTFDS
1.6 nM,1/6,GFDLDEYGIS,VIYADGSRTAYVDSVK,GENAGTFDV
1.3 nM,6/6,GFDLNEYGIS,VIYADGKRTAYSDSVK,GEVAGTFDL
240 pM,6/6,GFDLNEYGIS,VIYADGMRTAYSDDVK,GSNAGTFDV
41 nM,6/6,GFTLNSYGIS,VIYSDGRRTFYGDAVK,GEAAGTFDS
nd,0/6,GNTLNEYGIS,VIYADGIRKQYSDNVK,GMNGDTFTQ

Again, the first 7 entries without any signal:

CDR-H1,CDR-H2,CDR-H3,apparent Kd,seen in
GFQLNSYGIS,VIYSDGRRTEYGDSVK,GRAAGTFDS,nd,0/6
GFDLGEYGIS,VIYADGKRTACVTNVK,GTFGGTLLV,nd,0/6
GQSLDDYGIS,VIYADGQRKAAVDEVK,GENAGTFDI,nd,0/6
GFTLMSYGIS,VISSDGRRTFYGDDVK,GWAAGTFPS,nd,0/6
GFTLNSYGIS,VIYSDGRRTFYHDSVK,GRADGTNWS,nd,0/6
GFNLDEYGIS,VIYADGMRTVYAKNVK,GQNVGFTVF,nd,0/6
GYDIEQYGIS,VIYADGIRTVYDDSVK,GHNGDTFYV,nd,0/6